This test deals with T1, Caspase-1 (Homo sapiens) (UniProt P29466).
T1 sequence (whole entry): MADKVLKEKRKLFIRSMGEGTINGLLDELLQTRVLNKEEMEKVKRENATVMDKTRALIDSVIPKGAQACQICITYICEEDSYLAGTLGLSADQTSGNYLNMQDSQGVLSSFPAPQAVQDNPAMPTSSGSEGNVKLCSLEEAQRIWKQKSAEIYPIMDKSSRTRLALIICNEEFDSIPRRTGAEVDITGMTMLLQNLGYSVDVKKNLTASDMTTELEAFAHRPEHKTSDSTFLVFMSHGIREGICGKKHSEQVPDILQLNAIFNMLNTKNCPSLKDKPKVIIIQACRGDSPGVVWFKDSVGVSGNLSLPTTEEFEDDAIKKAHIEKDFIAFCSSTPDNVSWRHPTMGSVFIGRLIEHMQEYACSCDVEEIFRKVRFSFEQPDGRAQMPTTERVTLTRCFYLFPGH
Put plainly: Inhibition constant against interleukin-1-beta converting enzyme.

Consider `CC(C)[C@H](NC(=O)OCc1ccccc1)C(=O)N[C@@H](C)C(=O)N[C@@H](CC(=O)O)C(=O)COc1cc(C(F)(F)F)nn1-c1ccccc1`, for which the K obs / 1 was 280000 M⁻¹ s⁻¹.
To `CC(C)[C@H](NC(=O)OCc1ccccc1)C(=O)N1CCCC[C@H]1C(=O)N[C@@H](CC(=O)O)C(=O)COc1cc(C(F)(F)F)nn1-c1ccccc1` belongs 271000 M⁻¹ s⁻¹.

Source of the values: ChEMBL document CHEMBL1127733, “Aspartyl alpha-((1-phenyl-3-(trifluoromethyl)-pyrazol-5-yl)oxy)methyl ketones as interleukin-1 beta converting enzyme inhibitors. Significance of the P1 and P3 amido nitrogens for enzyme-peptide inhibitor binding” (J Med Chem, 1994).
